Laboratory results published in PMC9457773 (Molecules, 2022).

Test: Pharmacokinetic and drug–drug interaction study in rats (plasma, UPLC–MS/MS)
Settings: Sprague Dawley, rat, po, 100 mg/kg, sorafenib in rat plasma, sorafenib 100 mg/kg oral co-administered with canagliflozin 10 mg/kg (IVSOR+CA), n = 6, median (range)

Tmax: 6.5 h
SMILES: CNC(=O)c1cc(Oc2ccc(NC(=O)Nc3ccc(Cl)c(C(F)(F)F)c3)cc2)ccn1 [sorafenib, Sorafenib]
